The chains behind the UniProt entries cited, without tags or fusion partners. Residues count along the entry.
UniProt P43378, 277-582 limits assumed: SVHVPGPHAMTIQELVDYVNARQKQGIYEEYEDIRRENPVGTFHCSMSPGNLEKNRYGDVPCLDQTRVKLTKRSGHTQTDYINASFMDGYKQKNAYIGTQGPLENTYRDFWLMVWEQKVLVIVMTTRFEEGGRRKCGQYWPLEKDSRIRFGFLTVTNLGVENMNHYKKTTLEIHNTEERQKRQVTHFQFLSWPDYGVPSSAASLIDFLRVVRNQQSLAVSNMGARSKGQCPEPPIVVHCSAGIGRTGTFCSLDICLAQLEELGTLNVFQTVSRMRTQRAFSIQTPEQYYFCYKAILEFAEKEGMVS

According to patent US9340574B2, “Inhibitors of protein tyrosine phosphatases” (Indiana University Research and Technology Corporation, priority 2012, dated 2016):

Columns and labels:
[1] = molecular target: PTP-MEG2 (Homo sapiens (Human), UniProt P43378); experiment: pNPP hydrolysis enzyme assay, PTP-MEG2; conditions: read-out: IC50 for PTP-MEG2; pNPP substrate, pH 7.0, 25° C.
[2] = test system: insulin signaling in mouse primary hepatocytes; experiment: Insulin signaling in mouse primary hepatocytes (Western blot); type: cell-based; conditions: 200 nM concentration
Procedure: FIGS. 4A-B depict the ability of PTP-MEG2 inhibitor Compound 7 to sensitize insulin signaling in primary hepatocytes. […] Mouse primary hepatocytes were cultured in 0.5% FBS DMEM medium overnight. Prior to insulin stimulation, the cells were pretreated with Compound 7 or 8 for 1 hour. Then the cells were stimulated with 5 nM insulin for 5 minutes. Insulin signaling was analyzed by Western Blots using phospho-specific antibodies. […] Mouse primary hepatocytes were cultured in DMEM medium plus 0.5% FBS for overnight in the presence or absence of insulin or Compound 7 or 8. Then the cells were harvested for mRNA isolation and gene expression analysis using real-time PCR. The mRNA levels of Foxo1 target genes were normalized with Ppia as an internal control. […]
Mouse primary hepatocytes were isolated and cultured in DMEM medium with 0.5% FBS for 12 hours, and then were incubated with either vehicle DMSO, Compound 7 (100 nM), or Compound 8 (100 nM) for one hour. Phosphorylated IR, Gsk3β, and Foxo1 and the corresponding total proteins were analyzed by Western blots. […]
Western blot analysis. […] Protein signals were detected by incubation with HRP-conjugated secondary antibodies, followed by ECL detection reagent (Pierce). Western blots were scanned and quantified using the Quantity One software (Bio-Rad).

[3] = test system: 3T3-L1 differentiated adipocytes; experiment: Insulin signaling in 3T3-L1 differentiated adipocytes; conditions: 3T3-L1 adipocytes, 1 hour pretreatment before insulin
[4] = test system: HepG2 hepatocytes; experiment: Insulin signaling in HepG2 hepatocytes; conditions: HepG2, 1 hour pretreatment, 10 nM insulin 30 min
[5] = test system: C2C12 myotubes; experiment: Insulin signaling in C2C12 myotubes; conditions: 1 hour pretreatment, 100 nM insulin 30 min

Row | IC50 [1] | Compound | effect on insulin-mediated phosphorylation [2] | insulin signaling (phospho-Akt, phospho-IR) [3] | insulin signaling (phospho-IR, phospho-Akt) [4] | insulin signaling (phospho-Akt, phospho-IR) [5]
1 | 9 µM | CCc1ccc(C(=O)NCCCCC(NC(=O)C(Cc2ccc(C(F)(F)P(=O)(O)O)cc2)NC(C)=O)C(N)=O)cc1 (stereo not drawn) | – | – | – | –
2 | > 1 µM | COc1cc(CC(=O)NCC(NC(=O)C(CCCNC(=O)c2cccc(I)c2)NC(=O)C(Cc2ccccc2)NC(=O)c2ccc(C)c(Br)c2)C(N)=O)ccc1O (stereo not drawn) | no effect | not | not | not
